## Yeast mating assay B: variants of the scFv Ab-14

The measurements come from Li et al. 2023 (doi:10.1038/s41467-023-39022-2) through the FLAb antibody collection.

Target peptide (SARS-CoV-2 spike, HR2 region): PDVDLGDISGINAS

The variants keep the heavy chain, the linker and the frameworks of Ab-14 (scFv order VH, the linker GGGGSGGGGSGGGGS, VL).
VH: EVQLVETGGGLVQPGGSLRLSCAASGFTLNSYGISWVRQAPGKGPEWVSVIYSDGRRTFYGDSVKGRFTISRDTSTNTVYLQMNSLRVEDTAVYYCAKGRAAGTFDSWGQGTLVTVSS
VL: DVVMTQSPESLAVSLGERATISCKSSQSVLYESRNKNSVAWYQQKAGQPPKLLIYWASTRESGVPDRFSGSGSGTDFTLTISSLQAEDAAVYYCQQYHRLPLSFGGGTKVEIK

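The starting antibody came from a phage panning campaign against this peptide. This is the validation round: designs drawn from the data on random variants, tested in the same kind of assay. Their group label is 14L_GP_HC (GP: Gaussian process model; HC: hill climbing; a sequence that several methods proposed may carry one label only). In AlphaSeq, yeast of one mating type display the scFv and yeast of the other type display the target. Binding brings cells together so that they mate, and sequencing counts the barcode pairs among the diploids. Scores were corrected for input abundance and mapped to Kd with protein pairs of known affinity run in the same pool. Each pool was mated in six replicate cultures.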

Variants are written as CDR1, CDR2 and CDR3 of the light chain (limits as in the source). Parent: KSSQSVLYESRNKNSVA, WASTRES, QQYHRLPLS.
Affinities are written as log10 Kd with Kd in nM; a lower number is a better binder.
The mean shown is taken over the replicates in which the pair was detected.
Nonspecific signal, from three strains lacking the peptide, appeared in 4% of pairings of all light chain designs, centred on 2.64 (5% of these signals below 1.59); values are not corrected for it. For each scFv, signals with the empty controls are counted beside the result, with their mean in brackets.
The authors' rule: three or more of the six replicates give a measured affinity, fewer mean a poor binder.
Values of this round are not directly comparable with the first-round values of the same sequences.

CDR-L1 | CDR-L2 | CDR-L3 | replicates, log10 nM | mean, log10 nM | control signals
HSSPSVLYESRNKNSVA | AASTRES | QQYHRLPLS | 0.79 / 0.37 / 0.60 / 0.54 / 0.27 / 0.55 | 0.52 | 2/18 (2.45)
KSSFSVLYESENKNSVA | EASQRES | QQYHRLPLS | 0.57 / 0.56 / 0.50 / 0.23 / 0.39 / 0.67 | 0.49 | 2/18 (2.57)
KSSISYLYESRNKNSVA | HASTRES | QQYHRLPLS | 1.25 / 1.32 / 0.76 / 0.58 / 0.78 / 0.77 | 0.91 | 1/18 (3.41)
KSSISYLYESMNKNSVA | NGSTRES | QQYHRLPLS | 0.03 / 0.17 / -0.16 / 0.07 / -0.05 / 0.32 | 0.06 | 1/18 (2.76)
KSECGVLYEGRNKNSVA | GASTRES | QQYHRLPLS | 0.13 / 0.00 / -0.08 / -0.20 / -0.06 / 0.00 | -0.03 | 2/18 (3.28)
KLRQSTQYESRNQNSVA | WASLRES | QQYHRLPLS | 0.84 / 0.86 / 0.88 / 0.14 / 1.66 / 0.75 | 0.85 | 0/18
KSQQSVLYESRNKNNVA | AASTRED | QQYHRLPLS | -0.50 / -0.76 / -0.60 / -0.69 / -0.59 / -0.36 | -0.58 | 0/18
KSLWSVLYESNNKNSVA | HASTRED | QQYHRLPLS | 1.20 / 1.44 / 1.33 / 0.92 / 1.32 / 1.51 | 1.29 | 1/18 (2.73)
KQSQSVLYEGRNKNSVA | DASTRES | QQYHRLPLS | -0.19 / -0.20 / -0.24 / -0.63 / -0.36 / -0.16 | -0.30 | 0/18
KFSQSVPYESRTKNSVA | NASTRES | QQYHRLPLS | 0.38 / -0.05 / 0.14 / -0.03 / 0.04 / 0.30 | 0.13 | 1/18 (1.67)
KLPNSTLYESRQKNSVA | GASTRES | QQYHRLPLS | 0.56 / 0.67 / 0.35 / 0.79 / 0.60 / 0.68 | 0.61 | 0/18
KFSQSVLYESRTENSVA | NASTRES | QQYHRLPLS | -0.10 / 0.07 / -0.12 / -0.30 / -0.25 / -0.09 | -0.13 | 0/18
RLSQSVLYESRNKNSVA | DASTRES | QQYHRLPLS | -0.36 / -0.40 / -0.51 / -0.42 / -0.48 / -0.24 | -0.40 | 1/18 (2.30)
KMSQSVLFEPRNKNSVA | DASTRES | QQYHRLPLS | -0.63 / -0.89 / -0.69 / -0.96 / -0.80 / -0.76 | -0.79 | 1/18 (3.26)
KSSQSVLGEQRNKNSVA | DGSTRES | QQYHRLPLS | 0.08 / 0.09 / -0.16 / -0.14 / 0.02 / 0.01 | -0.02 | 1/18 (2.52)
FLSQSWLYESRNKNSVA | GGNTRES | QQYHRLPLS | -0.23 / -0.22 / -0.38 / -0.47 / -0.22 / -0.17 | -0.28 | 1/18 (2.88)
HLSPSVLYESRNKNSVA | NASTRES | QQYHRLPFS | -0.19 / -0.29 / -0.28 / -0.55 / -0.32 / -0.14 | -0.29 | 2/18 (2.97)
KLENSTLYESRQKNSVA | WASTRES | QQYHRLPLS | 1.34 / 1.28 / 1.19 / 1.15 / 1.16 / 1.42 | 1.26 | 1/18 (3.12)
KSSISQLIESRNKNSVA | EASTRES | QQYHRLPLS | -0.18 / -0.04 / -0.12 / -0.12 / 0.02 / 0.26 | -0.03 | 0/18
KLPNSTLYESRMKNSVA | NASTRES | QQYHRLPLS | 0.37 / 0.41 / 0.24 / 0.23 / 0.40 / 0.36 | 0.34 | 0/18
KSSQSFLYESRNKNAVA | GASTRES | QQYMRLPLS | -0.15 / -0.35 / -0.40 / -0.32 / -0.45 / -0.05 | -0.29 | 0/18
KSDQGTLYESRNKNSVA | GASTRES | QQYHRLPLS | 0.73 / 0.91 / 0.77 / 0.22 / 0.85 / 0.69 | 0.69 | 0/18
KLDQSTLYESRNKNSVA | GASTRES | QQYHRLPLS | -0.57 / -0.51 / -0.52 / -0.56 / -0.68 / -0.43 | -0.55 | 1/18 (3.81)
KFSQSVLYESRTKNGVA | NASQRES | QQYHRLPLS | 0.16 / 0.08 / 0.25 / -0.15 / 0.00 / 0.19 | 0.09 | 0/18
KSSLSVLFESRNKNSVA | DASTRSS | QQYHRLPLS | 0.37 / 1.68 / 0.25 / 0.57 / 0.61 / 0.51 | 0.67 | 0/18
KFSPSVLYESRLKNSVA | NASTRES | QQYHRLPLS | 1.38 / 1.30 / 0.74 / 0.13 / 0.33 / 1.24 | 0.86 | 2/18 (3.25)
HLSWVVLMESRNKNSVA | NASTRES | QQYHRLPLS | -0.11 / -0.10 / -0.14 / -0.37 / -0.19 / 0.02 | -0.15 | 0/18
KQSQSVLCESRNKNSVA | DASTRES | QQYHRLPLS | 0.32 / 0.28 / 0.41 / 0.16 / 0.04 / 0.33 | 0.26 | 0/18
IAAQSWLYESRNKNSVA | GASTRES | QQYHRLPLI | 0.33 / -0.13 / 0.10 / -0.03 / 0.23 / 0.28 | 0.13 | 2/18 (3.59)
KSSIGWLEESRNKNSVA | EASTRES | QQYHRLPLS | 0.00 / -0.15 / -0.26 / -0.43 / -0.39 / -0.20 | -0.24 | 1/18 (2.67)
FSQQSVLYESRNFNSVA | HASTRED | QQYHRLPLS | 0.65 / 0.55 / 0.83 / 1.40 / 0.35 / 0.65 | 0.74 | 1/18 (1.83)
KSLQSVLYESRDKNSVA | EASTRED | QQYHRLPLS | 0.76 / 1.02 / 0.22 / 1.27 / 0.42 / 0.77 | 0.75 | 1/18 (2.03)
KFSQSVLYESRNKNSVA | DASTRES | QQYQRLPLS | -0.17 / 0.00 / -0.43 / -0.44 / -0.34 / -0.31 | -0.28 | 0/18
KSSMGYLYESRNKNSVA | GASTRES | QQYHRLPLS | 0.55 / 0.20 / 0.08 / 0.12 / 0.35 / 0.14 | 0.24 | 1/18 (2.31)
KVSSSYLLESRNKNSVA | EASTRES | QQYHRLPLS | -0.26 / -0.07 / -0.20 / -0.25 / -0.23 / -0.11 | -0.19 | 1/18 (2.26)
KSSISYLYESGNHNSVA | EASTREQ | QQYHRLPLS | 0.63 / 0.16 / 0.08 / 0.61 / -0.19 / 0.78 | 0.34 | 0/18
KSSISNLYESRNENSVA | EASTREQ | QQYHRLPLS | 0.25 / 0.30 / 0.08 / 0.02 / 0.12 / 0.22 | 0.16 | 0/18
KSSPSVPYESHNKNSVA | NASTRMS | QQYHRLPLS | 0.56 / 0.46 / 0.43 / 0.32 / 0.41 / 0.50 | 0.45 | 2/18 (2.41)
KLRQSTWYESRNQNSVA | WASTRES | QQYHRLPLS | 0.70 / 0.44 / 0.62 / 0.33 / 0.65 / 0.67 | 0.57 | 5/18 (3.11)
KSSISYDYESRNKNSVA | AASTRES | QQYHRLPLS | -0.03 / -0.16 / -0.48 / -0.38 / -0.33 / -0.09 | -0.24 | 2/18 (2.73)
KSLQSVLYESRNFNSVA | HASTRED | QQYHRLPLS | 1.81 / 0.80 / 1.09 / 1.41 / 1.58 / 1.16 | 1.31 | 1/18 (2.38)
KSSISDLYESRNKNSVA | AASTRES | QQYHRLPLS | 0.57 / 0.17 / -0.09 / -0.09 / -0.09 / 0.26 | 0.12 | 0/18
KSLQSVPYESRNFNSVA | HASTRED | QQYHRLPLS | 0.40 / 0.31 / -0.03 / 0.29 / 0.13 / 0.28 | 0.23 | 0/18
KLQQSMEYESRNKNSVA | HASTRES | QQYHRLPLS | -0.03 / -0.12 / -0.25 / -0.23 / -0.13 / -0.08 | -0.14 | 0/18

For reference, 4 entries of the list once more:

CDR-L1 | CDR-L2 | CDR-L3 | replicates, log10 nM | mean, log10 nM | control signals
KVSSSYLLESRNKNSVA | EASTRES | QQYHRLPLS | -0.26 / -0.07 / -0.20 / -0.25 / -0.23 / -0.11 | -0.19 | 1/18 (2.26)
KSSISYDYESRNKNSVA | AASTRES | QQYHRLPLS | -0.03 / -0.16 / -0.48 / -0.38 / -0.33 / -0.09 | -0.24 | 2/18 (2.73)
KFSQSVLYESRTENSVA | NASTRES | QQYHRLPLS | -0.10 / 0.07 / -0.12 / -0.30 / -0.25 / -0.09 | -0.13 | 0/18
KLPNSTLYESRMKNSVA | NASTRES | QQYHRLPLS | 0.37 / 0.41 / 0.24 / 0.23 / 0.40 / 0.36 | 0.34 | 0/18